Counter-ions that a name gives are not always drawn.
What was measured:
[1] = Pharmacokinetic evaluation (dog PK), single oral dose; settings: Beagle dog, fasted; for Area under the blood concentration curve AUClast: 24-hour sampling
Procedure: 6) Pharmacokinetic evaluation (dog PK): The free base and tartrate salt prepared in Preparation Example were orally administered in a single dose to beagle dogs as experimental animals, and blood pharmacokinetic evaluation was carried out.
Three males (1.8 years old ~ 2.8 years old, KPC) were used for each dose. Each individual used a healthy animal suitable for the experiment after a 1-week quarantine and acclimatization period. After fasting, the drug was administered, and the first blood collection was performed immediately before administration, and a total of 10 blood collections were performed over a 24-hour period. The collected blood was centrifuged, and dispensed into plasma supernatants, after which the peak area ratio of the test substance to the peak area of the internal standard substance was extrapolated to the calibration curve to calculate the blood concentration.

[2] = Hygroscopicity analysis (DVS Hygroscopicity); settings: 0~95% RH at 25°C
Procedure: The physical properties of the free base (Compound 1) obtained in Preparation Example and the tartrate salt obtained in Example 1 were measured as follows. • 1) Melting Point: Measured with MP70 available from Mettler Toledo. The sample was collected through a capillary, and then allowed to fall freely using a specified glass rod, and repeated several times to ensure that there was no empty space in the capillary tube. Then, the transmittance was measured starting from 168°C and increasing the temperature by 1°C per minute, and the melting point was confirmed. The measurement results are shown in Table 2 below. • 2) Thermogravimetric analysis: Measured using TGA2 available from Mettler Toledo. 50 mg of the sample was placed in an Al2O3 pan, and the temperature was increased from 30.0°C at a rate of 10.00°C per minute to confirm the weight change up to 600.0 °C. As a result of the measurement, three weight changes were confirmed at the midpoint of 50.4°C (dehydration), 206.7°C (endothermic), and 378.4°C (exothermic behavior), and specific thermogravimetric analysis results are shown in FIG. 4. • 3) Hygroscopicity analysis (DVS Hygroscopicity): Measured using DVS Adventure available from Surface Measurement Systems. The sample was exposed to 0~95% RH using DVS at 25°C to confirm the hygroscopicity. Depending on the degree of moisture adsorption, it was divided into Non-hygroscopic (0~0.12%)/Slightly Hygroscopic (0.2~2%)/Moderately Hygroscopic (2.0~15.0%)/Very Hygroscopic (>15.0%). The measurement results are shown in Table 2 below. • 4) Water Solubility: Measured by HPLC available from Waters. The sample was supersaturated with water at 23~26°C, stirred for at least 18 hours, and then allowed to stand for at least 18 hours. The supernatant extracted using a centrifuge was filtered through a 0.45 µm filter. The HPLC area of the filtrate was measured to confirm the solubility. The measurement results are shown in Table 2 below. • 5) Stability: The purity was measured after 2 weeks under the accelerated testing criteria of 40±2°C/75±5% relative humidity. About 1 mg of the tartaric acid salt solid obtained in Example 1 was dissolved in 1 ml of 100% methanol, and then 700 µl of acetonitrile was added to 300 µl of this solution, diluted, and the purity was measured by HPLC.

[3] = Stability under accelerated testing criteria (HPLC purity); settings: purity by HPLC after 2 weeks at 40±2°C/75±5% relative humidity
Procedure: (§1) The physical properties of the free base (Compound 1) obtained in Preparation Example and the tartrate salt obtained in Example 1 were measured as follows. • 1) Melting Point: Measured with MP70 available from Mettler Toledo. The sample was collected through a capillary, and then allowed to fall freely using a specified glass rod, and repeated several times to ensure that there was no empty space in the capillary tube. Then, the transmittance was measured starting from 168°C and increasing the temperature by 1°C per minute, and the melting point was confirmed. The measurement results are shown in Table 2 below. • 2) Thermogravimetric analysis: Measured using TGA2 available from Mettler Toledo. […] As a result of the measurement, three weight changes were confirmed at the midpoint of 50.4°C (dehydration), 206.7°C (endothermic), and 378.4°C (exothermic behavior), and specific thermogravimetric analysis results are shown in FIG. 4. • 3) Hygroscopicity analysis (DVS Hygroscopicity): Measured using DVS Adventure available from Surface Measurement Systems. […] The measurement results are shown in Table 2 below. • 4) Water Solubility: Measured by HPLC available from Waters. […] The HPLC area of the filtrate was measured to confirm the solubility. […]

Water solubility by HPLC = settings: water at 23~26°C, stirred at least 18 hours, allowed to stand at least 18 hours, 0.45 µm filtered
Procedure: as §1

[4] = single oral dose 50 mg/kg, 50 mg/kg
[5] = single oral dose 100 mg/kg, listed as Tartrate salt, 100 mg/kg
[6] = single oral dose 100 mg/kg, listed as tartrate salt, 100 mg/kg
[7] = class by degree of moisture adsorption
[8] = single oral dose 150 mg/kg, listed as Free base, 150 mg/kg
[9] = single oral dose 150 mg/kg, listed as free base, 150 mg/kg

Compound	Area under the blood concentration curve AUClast [1, 4]	Maximum blood concentration Cmax [1, 4]	Area under the blood concentration curve AUClast [1, 5]	Area under the blood concentration curve AUClast [1, 6]	Maximum blood concentration Cmax [1, 5]	Maximum blood concentration Cmax [1, 6]	Hygroscopicity [2, 7]	Hygroscopicity ([2]; degree of moisture adsorption) [%]	Stability [3]	Area under the blood concentration curve AUClast [1, 8]	Area under the blood concentration curve AUClast [1, 9]	Maximum blood concentration Cmax [1, 8]	Maximum blood concentration Cmax [1, 9]	Water solubility (Water solubility by HPLC) [µg/mL]
C=CC(=O)N1CC[C@@H](F)[C@@H](Oc2nc(Nc3cnn(CC)c3)nc3[nH]ccc23)C1 [Tartrate salt of Example]	11,707 ± 5,687 ng·h/mL	3,534 ± 1,201 ng/mL	34,518 ± 934 ng·h/mL	34,518 ng·h/mL	6,423 ± 1,792 ng/mL	6,423 ng/mL	Moderately Hygroscopic (Moderately Hygroscopic (2.0~15.0%))	3	99.26% (2 weeks)	–	–	–	–	–
C=CC(=O)N1CC[C@@H](F)[C@@H](Oc2nc(Nc3cnn(CC)c3)nc3[nH]ccc23)C1 [Free base of Preparation Example]	9,377 ± 8,852 ng·h/mL	1,740 ± 806 ng/mL	–	–	–	–	Moderately Hygroscopic (Moderately Hygroscopic (2.0~15.0%))	6	94.87% (2 weeks)	5,370 ± 4,287 ng·h/mL	5,370 ng·h/mL	1,197 ± 728 ng/mL	1,197 ng/mL	568

— patent publication EP4821933A1, “TARTRATE SALT OF 1-((3S,4R)-3-((2-((1-ETHYL-1H-PYRAZOL-4-YL)AMINO)-7H-PYRROLO[2,3-D]PYRIMIDIN-4-YL)OXY)-4-FLUOROPIPERIDIN-1-YL)PROP-2-EN-1-ONE, CRYSTALLINE FORM THEREOF, AND METHOD FOR PREPARING SAME” (dated 2026)
